What was measured:
[1] = target: cAMP-dependent protein kinase catalytic subunit alpha (Homo sapiens, UniProt P17612); experiment: Inhibitory concentration against recombinant human cAMP-dependent Protein kinase A
[2] = target: T1, Protein kinase C epsilon type (Homo sapiens, UniProt Q02156); experiment: Inhibitory concentration against recombinant human Protein kinase C epsilon isozyme
T1 sequence (Q02156 whole entry): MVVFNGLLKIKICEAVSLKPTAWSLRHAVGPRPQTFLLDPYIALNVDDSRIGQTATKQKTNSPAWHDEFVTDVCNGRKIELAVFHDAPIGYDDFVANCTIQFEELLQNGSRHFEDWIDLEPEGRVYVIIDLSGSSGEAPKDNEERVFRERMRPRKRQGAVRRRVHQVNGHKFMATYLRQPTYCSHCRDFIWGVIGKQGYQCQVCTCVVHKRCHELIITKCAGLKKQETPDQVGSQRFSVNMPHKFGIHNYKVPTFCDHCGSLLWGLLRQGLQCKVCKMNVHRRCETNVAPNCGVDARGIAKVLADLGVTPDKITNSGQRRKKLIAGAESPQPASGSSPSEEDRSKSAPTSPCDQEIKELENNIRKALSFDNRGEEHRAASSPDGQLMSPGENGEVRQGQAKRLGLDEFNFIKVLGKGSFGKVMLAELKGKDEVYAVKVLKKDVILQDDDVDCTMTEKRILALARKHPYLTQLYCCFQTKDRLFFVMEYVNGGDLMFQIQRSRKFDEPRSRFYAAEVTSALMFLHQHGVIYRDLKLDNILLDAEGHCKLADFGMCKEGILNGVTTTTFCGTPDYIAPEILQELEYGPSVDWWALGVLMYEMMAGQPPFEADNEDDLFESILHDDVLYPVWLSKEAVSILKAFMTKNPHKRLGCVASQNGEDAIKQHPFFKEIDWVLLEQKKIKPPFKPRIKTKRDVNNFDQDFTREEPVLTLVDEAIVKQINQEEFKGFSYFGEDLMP

IC50 [2] | Compound | IC50 [1]
– | O=C(N[C@@H]1CCC[C@H]1OC(=O)c1cc(O)c(C(=O)c2c(O)cccc2C(=O)O)c(O)c1)c1ccc(O)cc1 | 0.03 µM
1 µM | O=C(N[C@H]1CNCCC[C@@H]1OC(=O)c1cc(O)c(C(=O)c2c(O)cccc2C(=O)O)c(O)c1)c1ccc(O)cc1 | –
0.04 µM | O=C(NC1CNCCCC1OC(=O)c1cc(O)c(C(=O)c2c(O)cccc2C(=O)O)c(O)c1)c1ccc(O)cc1 (racemic) | –

From ChEMBL document CHEMBL1130164, “Synthesis and protein kinase C inhibitory activities of balanol analogs with replacement of the perhydroazepine moiety” (J Med Chem, 1997)
